Measurements as given in ChEMBL document CHEMBL5532757, “Design, synthesis, and biological evaluation of 1,2,4-oxadiazole-based derivatives as multitarget anti-Alzheimer agents” (RSC Med Chem, 2024).

Protein sequences, listed by entry. Tags and fused reporters are not part of them.
UniProt P06276, whole entry: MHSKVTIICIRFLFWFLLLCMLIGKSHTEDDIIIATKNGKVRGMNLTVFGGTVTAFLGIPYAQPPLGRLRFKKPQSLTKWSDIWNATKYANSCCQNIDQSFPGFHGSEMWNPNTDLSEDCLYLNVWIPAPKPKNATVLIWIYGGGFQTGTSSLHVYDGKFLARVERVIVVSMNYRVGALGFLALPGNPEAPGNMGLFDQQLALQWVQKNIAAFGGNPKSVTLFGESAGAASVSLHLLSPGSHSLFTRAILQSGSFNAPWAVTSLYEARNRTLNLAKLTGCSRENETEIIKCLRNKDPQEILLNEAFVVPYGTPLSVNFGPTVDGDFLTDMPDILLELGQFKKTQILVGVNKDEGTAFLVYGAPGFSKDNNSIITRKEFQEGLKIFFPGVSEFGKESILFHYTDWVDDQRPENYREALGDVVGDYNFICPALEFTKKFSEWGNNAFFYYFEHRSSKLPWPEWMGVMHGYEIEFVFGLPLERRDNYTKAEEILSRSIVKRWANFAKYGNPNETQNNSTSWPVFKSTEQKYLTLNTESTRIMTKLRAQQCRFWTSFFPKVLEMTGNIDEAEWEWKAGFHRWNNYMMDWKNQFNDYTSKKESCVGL

Biological target: Cholinesterase (Homo sapiens, UniProt P06276)
Assay: Inhibition of BChE (unknown origin) using butyrylthiocholine iodide as substrate incubated for 15 mins by DTNB reagent based ELISA

Structure (SMILES): CCN(C)C(=O)Oc1cccc([C@H](C)N(C)C)c1 [RIVASTIGMINE]
- IC50: 5.88 µM
